# According to PubChem BioAssay AID602329 (Broad Institute, 2012):
# Protein sequences, listed by entry. Tags and fused reporters are not part of them.
# UniProt Q92698, whole entry: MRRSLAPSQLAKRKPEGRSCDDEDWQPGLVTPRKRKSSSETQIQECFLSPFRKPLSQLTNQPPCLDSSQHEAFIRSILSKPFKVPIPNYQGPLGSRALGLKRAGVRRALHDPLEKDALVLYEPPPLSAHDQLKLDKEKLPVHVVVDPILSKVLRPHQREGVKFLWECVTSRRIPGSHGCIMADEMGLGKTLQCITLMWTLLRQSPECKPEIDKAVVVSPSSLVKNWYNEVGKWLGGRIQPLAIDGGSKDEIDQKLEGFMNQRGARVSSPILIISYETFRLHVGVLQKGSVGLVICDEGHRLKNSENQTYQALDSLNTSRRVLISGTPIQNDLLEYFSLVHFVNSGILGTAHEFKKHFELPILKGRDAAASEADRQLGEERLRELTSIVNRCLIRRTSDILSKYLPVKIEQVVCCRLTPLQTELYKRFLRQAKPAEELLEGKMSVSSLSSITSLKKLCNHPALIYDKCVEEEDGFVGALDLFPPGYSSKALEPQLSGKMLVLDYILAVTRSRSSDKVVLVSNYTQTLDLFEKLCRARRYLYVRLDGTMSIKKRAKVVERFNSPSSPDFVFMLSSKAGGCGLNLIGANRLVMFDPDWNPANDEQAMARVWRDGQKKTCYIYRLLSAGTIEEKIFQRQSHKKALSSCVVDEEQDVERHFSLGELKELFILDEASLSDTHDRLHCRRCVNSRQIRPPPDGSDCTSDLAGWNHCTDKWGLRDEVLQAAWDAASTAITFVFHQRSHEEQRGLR
# The list shows a part of the results, in another mix than the full data. Calls of active or inactive are those of the source.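 Rule for the calls: active = mean normalized replicate activity at least 40 and at least half of replicates scoring 40 or more; inconclusive = only one of the two criteria met; inactive = mean below 40 and under half of replicates reaching 40.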
# Biological target: DNA repair and recombination protein RAD54-like (Homo sapiens) (UniProt Q92698)
# Test: RAD54 Holliday junction migration blockers – biochemical, fluorescence, single point, primary screen (AID 602329);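 note: 0% = median of neutral control wells and 100% = median of positive control wells; inhibitors cause a drop in the FAM fluorescence signal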
# Settings: RAD54 Holliday junction branch migration, FAM/BHQ fluorescence; at 10.4 µM; stronger effect = higher value
row,Structure (SMILES),inhibition
1,CCC(=O)N(c1ccccc1)C1(COC)CCN(CCc2cccs2)CC1,inactive: -8.26%
2,CCC(=O)N(c1ccccc1)C1(COC)CCN(CCn2nnn(CC)c2=O)CC1,inactive: -12.8%
